{"source": "paper PMC4139099", "about": "(Biochimica et biophysica acta, 2013)", "target": "T1, thermolysin (Bacillus thermoproteolyticus, UniProt P00800)", "T1 sequence (P00800 233-548)": "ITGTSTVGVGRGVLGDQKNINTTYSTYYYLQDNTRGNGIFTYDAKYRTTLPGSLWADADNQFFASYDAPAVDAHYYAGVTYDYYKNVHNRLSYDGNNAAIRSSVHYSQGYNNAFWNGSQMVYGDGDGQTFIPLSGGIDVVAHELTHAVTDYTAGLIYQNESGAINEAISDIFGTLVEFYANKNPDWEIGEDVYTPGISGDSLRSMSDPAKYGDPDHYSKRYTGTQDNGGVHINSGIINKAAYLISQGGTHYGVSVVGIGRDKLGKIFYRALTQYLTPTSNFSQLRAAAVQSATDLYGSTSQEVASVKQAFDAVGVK", "assay": "Proteolytic and thermal stability against thermolysin", "format": "in vitro ADME", "conditions": "thermolysin from Bacillus thermoproteolyticus Rokko; 65 °C, up to 12 h"}
{"substance": "asteropsin C [ASPC]", "values": [{"measurement": "proteolytic and thermal stability against thermolysin", "result": "exceptional proteolytic and thermal stability"}]}
